Experimental data taken from patent US7728037B2, “Alpha-ketoglutarates of active ingredients and compositions containing same” (Sigma-Tau Industrie Farmaceutiche Riunite S.p.A., priority 2001, dated 2010).

Tested on: rabbit heart papillary muscle subjected to hypoxia
Assay: Metabolic tests: ATP concentrations in rabbit heart papillary muscle subjected to hypoxia after oral treatment
Assay type: in vivo
Settings: 1 g/kg by mouth or equimolecular doses, three consecutive days; tissue held anoxic for 90 minutes; untreated controls 1.70±0.68 to 0.46±0.071
Source text: After three consecutive days of treatment, sections of papillary muscle were isolated from the rabbit hearts and were perfused in a thermostatized bath with a saturated solution of 100% O2.

With `O=C(O)CCC(=O)C(=O)O` [alpha-ketoglutaric acid] the ATP concentrations in papillary muscle after hypoxia was 0.75 ± 0.8 µmol/g tissue.
